Publication PMC10199079

Assay: immunoblot with anti-pT234-PD-1 antibody
Conditions: glycan lost

Protein	other: phosphorylation at T234 (control: wild type)	other: phosphorylation at T234 (control: untreated)
PD-1: 4NQ (N49Q/N58Q/N74Q/N116Q) (protein) parent chain: MQIPQAPWPVVWAVLQLGWRPGWFLDSPDRPWNPPTFSPALLVVTEGDNATFTCSFSNTSESFVLNWYRMSPSNQTDKLAAFPEDRSQPGQDCRFRVTQLPNGRDFHMSVVRARRNDSGTYLCGAISLAPKAQIKESLRAELRVTERRAEVPTAHPSPSPRPAGQFQTLVVGVVGGLLGSLVLLVWVLAVICSRAARGTIGARRTGQPLKEDPSAVPVFSVDYGELDFQWREKTPEPPVPCVPEQTEYATIVFPSGMGTSSPARRGSADGPRSAQPLRPEDGHCSWPL	no change	–
PD-1: tunicamycin (protein) parent chain: MQIPQAPWPVVWAVLQLGWRPGWFLDSPDRPWNPPTFSPALLVVTEGDNATFTCSFSNTSESFVLNWYRMSPSNQTDKLAAFPEDRSQPGQDCRFRVTQLPNGRDFHMSVVRARRNDSGTYLCGAISLAPKAQIKESLRAELRVTERRAEVPTAHPSPSPRPAGQFQTLVVGVVGGLLGSLVLLVWVLAVICSRAARGTIGARRTGQPLKEDPSAVPVFSVDYGELDFQWREKTPEPPVPCVPEQTEYATIVFPSGMGTSSPARRGSADGPRSAQPLRPEDGHCSWPL	–	no change
